Earlier results as cited in PMC5809328 (Neuropharmacology, 2017).

Tested on: mice
Details: ref Pan et al., 2009, Marrone 2017; cited from earlier work

CN1CC[C@]23c4c5ccc(O)c4O[C@H]2[C@@H](O)C=C[C@H]3[C@H]1C5 [Morphine]
analgesic activity in E11 KO mice: retains full analgesic activity
